scFv variants of Ab-14 (light chain) against a SARS-CoV-2 spike peptide

Reference: Li et al. 2023, doi:10.1038/s41467-023-39022-2. File: FLAb, binding data.

The target is the same throughout: PDVDLGDISGINAS, from the HR2 region of SARS-CoV-2 spike.

Each scFv is VH, a 15-residue (Gly4Ser)3 linker, VL, as in the parent Ab-14, and differs from it in the CDRs of the light chain only.
VH: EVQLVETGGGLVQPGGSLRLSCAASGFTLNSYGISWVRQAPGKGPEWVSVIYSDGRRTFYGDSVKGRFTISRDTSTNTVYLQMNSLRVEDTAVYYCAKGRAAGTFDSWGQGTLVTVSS
VL: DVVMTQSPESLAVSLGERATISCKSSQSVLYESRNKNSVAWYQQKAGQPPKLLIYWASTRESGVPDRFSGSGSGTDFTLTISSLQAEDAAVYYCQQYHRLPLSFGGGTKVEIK

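The parent was found by panning a naive human phage display library on the peptide. These sequences belong to a second round, designed from the earlier measurements on random variants of the parent. Group labels follow the data file (Ctrl: baseline library sampled from a position-specific scoring matrix, with some repeated check sequences; GP: Gaussian process model; HC: hill climbing; Gen: genetic algorithm; a sequence that several methods proposed may carry one label only). AlphaSeq pools MATa yeast showing the antibodies with MATalpha yeast showing the peptide. Binding brings cells together so that they mate, and sequencing counts the barcode pairs among the diploids. Scores were corrected for input abundance and mapped to Kd with protein pairs of known affinity run in the same pool. Each pool was mated in six replicate cultures.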

Each variant is given by its three light chain CDRs, as the data file delimits them; those of the parent are KSSQSVLYESRNKNSVA, WASTRES, QQYHRLPLS. Numbers give log10(Kd / nM), so 0 is 1 nM and 3 is 1 µM. Smaller is tighter. "nd" marks a missing value. The strain was present, yet no cells mated with the target were sequenced in that replicate, which points to weak or no binding.

CDR-L1 | CDR-L2 | CDR-L3 | group | log10 Kd (nM) by replicate | control signals
KSSQSALFASQNKNSVA | QASTRES | QQYHRLPLS | Ctrl | 1.15 / 1.94 / 1.79 / 1.84 / 0.90 / 0.66 | 0 of 18
KSSQSVLYESMNKNSVA | GASTRES | QQYTRLPPS | Ctrl | nd / nd / nd / nd / nd / nd | 1 of 18 (0.83)
KQSQSVLYESRNKNSVA | QASTRES | QQVHRLPLS | Ctrl | nd / nd / nd / nd / nd / nd | 0 of 18
KSSQSVPYESRNKNSVA | GASTRES | QQYHRLPLS | Ctrl+GP_Gen | 0.66 / 0.80 / 0.75 / 0.69 / 1.16 / 0.71; 0.65 / 0.27 / 0.20 / 0.11 / 0.25 / 0.78 | 1 of 36 (3.30)
KSSQSVLYESRNKNSVA | WASTRND | QKYHRLPLD | Ctrl | 1.51 / 2.57 / nd / 2.18 / 1.03 / 0.99 | 0 of 18
KSSQSVLGQSRNKNSVA | WASTRES | QQYHRLPLS | Ctrl | nd / 1.15 / nd / nd / 1.97 / 1.24 | 0 of 18
KSSQSHLYESRNLNSVA | WASTRES | QQYHRLPLS | Ctrl | nd / 1.66 / 2.19 / 2.40 / 0.95 / 2.02 | 1 of 18 (2.01)
KSKQSLLYESKNVNSVA | WASTREG | QQYKRLPLS | Ctrl | nd / 2.12 / nd / 1.74 / nd / nd | 0 of 18
KSSHSVLYEQRNKNSVA | WASTRES | NQYHRLPLS | Ctrl | nd / nd / nd / nd / nd / nd | 0 of 18
KISQSVLYESRNKNSVA | MASTRES | QQYHRLPLP | Ctrl | nd / nd / nd / nd / nd / nd | 0 of 18
KSSQSVLYESRNKNSVA | MASTRES | QQIHRLPLS | Ctrl | 3.47 / nd / 2.66 / nd / 3.93 / nd | 0 of 18
IMSQSVLYESRNKNSVA | GASTRES | QQYHRLPLS | Ctrl | 0.15 / 0.20 / 0.06 / -0.19 / 0.20 / 0.23 | 0 of 18
KMSQSVLYESRNKNSVA | TASTRES | QQYHRAPLS | Ctrl | nd / nd / nd / nd / nd / nd | 0 of 18
KQSQSQLYESRNKNSVA | QASTRES | QQYHRLPLS | Ctrl | 0.03 / 0.12 / 0.01 / 0.55 / 0.18 / 0.04 | 0 of 18
WSSQSVLYESRNKNSCA | WASTRES | QQYHREPLS | Ctrl | nd / nd / nd / nd / nd / nd | 0 of 18
KSSQSVLMESRNKNSVA | GTSTRES | QQYHRLPLS | Ctrl | 0.89 / 0.65 / 0.36 / 0.61 / 0.40 / 0.94 | 2 of 18 (3.32)
KSSQSVLKESDNKNSVA | WASTRSS | QQYHRLPLS | Ctrl | 0.95 / 0.59 / 0.45 / 0.27 / 0.25 / 0.82 | 0 of 18
KFSQSVLYESRNKNSVA | NASTRIA | QQYHRLPLS | Ctrl | 0.41 / 0.09 / 0.17 / 0.11 / 0.10 / 0.45 | 1 of 18 (2.44)
KMSDSVLYESRNKNSVA | WASTRES | QQYHRLPLS | Ctrl | 0.77 / 0.43 / 0.43 / 0.22 / 0.54 / 0.57 | 0 of 18
KSSQSVLYESRNTNSVA | WASYRES | QQYHRLPLS | Ctrl | 3.49 / 1.95 / 2.41 / 2.11 / 2.04 / 2.41 | 0 of 18
KDSQSLLYESRNKNSVA | WSSTPES | QQYHRLPLS | Ctrl | nd / nd / nd / nd / nd / nd | 0 of 18
KSSQSVLYESRNKNSVA | QASTRNS | QQYHRLTLS | Ctrl | 1.03 / 1.45 / 0.88 / 1.79 / 1.69 / 1.40 | 1 of 18 (3.17)
KSSLSGLYESRNKNSVA | WASTRES | QQYHQLPLS | Ctrl | 3.12 / 1.25 / 0.97 / 2.05 / 1.67 / 1.57 | 1 of 18 (2.58)
KSVQSVLYESRGKNNVA | WASTRES | QQYHRLPLS | Ctrl | nd / nd / nd / nd / nd / nd | 0 of 18
KSSQSVLYESRNKNSVA | HASTTES | QQYHRLPLS | Ctrl | 1.07 / 1.60 / 1.69 / 1.57 / 1.78 / 1.17 | 1 of 18 (2.61)
IYSQSVWIESRNNNSVA | RASERES | QTYHNLPLS | Ctrl | nd / nd / nd / nd / nd / nd | 2 of 18 (2.66)
KSSQSVLYESRNKNSVA | WASTRES | QQGHRLPLR | Ctrl | nd / nd / nd / nd / nd / nd | 1 of 18 (1.66)
KSSQGVEYESREKNSVA | SASTRES | QQYHRLPLS | Ctrl | 1.41 / 1.12 / 0.78 / 1.18 / 1.25 / 1.10 | 1 of 18 (2.58)
KMSQSVLYESRNKNSVA | HASERES | QQYHRLPLS | Ctrl | -0.43 / -0.37 / -0.49 / -0.92 / -0.33 / -0.24 | 1 of 18 (2.25)
KISQSVLYESRNKNSVA | WASTRES | SQYKRLPFS | Ctrl | nd / 4.09 / nd / nd / nd / nd | 5 of 18 (2.98)
KSSQSVLKESRNQNSVA | WASTQES | QQYHRLPLS | Ctrl | nd / nd / nd / 2.41 / nd / nd | 0 of 18
KSSQSVLYESHNKNSVA | WASWRES | QQYHRLPLS | Ctrl | nd / nd / nd / nd / nd / nd | 0 of 18
KHRQSVLYESRNKNSVA | WASTRES | QQYHRLPLS | Ctrl | nd / 1.39 / nd / 1.68 / nd / nd | 1 of 18 (1.96)
KSSQSVLYESRNKNSVA | WKSTRES | QQYHRLPLS | Ctrl | nd / nd / nd / nd / nd / nd | 0 of 18
KSSQDVLYESRNKNSVA | EASTREH | QQYHRLCVS | Ctrl | 0.01 / 0.43 / -0.02 / -0.01 / 0.24 / -0.53 | 0 of 18
KSSQPRLYESRNKNSVA | MASTRES | QQYARLPLS | Ctrl | 0.86 / 0.43 / 0.50 / 0.48 / 0.65 / 0.58 | 0 of 18
KHSQSVPNESRNKNSVA | WASTRES | QAYHRLPLS | Ctrl | nd / nd / 2.22 / nd / nd / nd | 0 of 18
KSSQSVLYESRNKNSVA | EASTRED | QQYHRLPLS | Ctrl+GP_HC | 0.55 / 0.65 / 0.72 / 0.42 / 0.37 / 0.63; 0.20 / 0.60 / 1.04 / 1.56 / 0.48 / 0.99 | 1 of 36 (3.34)
KASQSVEYESRNKNSVA | EASTRES | QQYARLPLS | Ctrl | -0.35 / -0.27 / -0.46 / -0.61 / -0.41 / -0.18 | 2 of 18 (2.76)
KSSQSVLYESRQKNSVA | WASTRES | QQYHRLPLS | Ctrl | 2.21 / nd / nd / 2.36 / 3.08 / nd | 0 of 18
KVSQSVLYESRMKNSVA | WASTRES | QQYHRLPLS | Ctrl | 0.98 / 0.52 / 0.52 / 0.69 / 0.59 / 0.69 | 4 of 18 (2.73)
KSSQEVLYESRNKYSVA | WASTRES | QQYHRLPLW | Ctrl | nd / nd / nd / 1.19 / nd / nd | 0 of 18
KSSQSVLMESRNKNGVA | WASTRES | QQYHRLPLS | Ctrl | nd / nd / 1.86 / nd / nd / 2.75 | 0 of 18
KSRQSMLYESRNKNSVA | WASTRES | QQYHRLPLS | Ctrl | nd / 2.32 / nd / nd / nd / nd | 0 of 18
KSSSSVLYESRNENSVA | SASTRES | QQYHRLPLS | Ctrl | 0.91 / 0.57 / 0.68 / 0.59 / 0.55 / 0.82 | 0 of 18
KSSQPVLYESRNKNSVA | WASTRES | QQYHRLPLS | Ctrl | nd / 2.98 / nd / 1.90 / 2.89 / nd | 0 of 18
KSSGADLYESRNKNSVA | WASTRED | QQYHRLPLS | Ctrl | 0.82 / 1.13 / 0.99 / 0.95 / 0.87 / 1.10 | 0 of 18
KSSQSVLYEHRNKNSVA | HASTRES | QQYHRLPLS | Ctrl | 1.94 / 1.09 / 2.17 / 1.05 / 1.16 / 1.65 | 2 of 18 (2.51)
KSSQSVLYESLNKNSVA | QASTRES | QQYHRLPLS | Ctrl | 1.06 / 0.77 / 0.59 / 0.50 / 0.70 / 0.87 | 1 of 18 (3.58)
KSSQSVLYEERNENSVA | WASTRES | QAYHRLPLS | Ctrl | nd / nd / nd / 2.13 / 2.54 / nd | 0 of 18

The 7 strongest on average among those seen in every replicate, once more:

{"CDR-L1": "KMSQSVLYESRNKNSVA", "CDR-L2": "HASERES", "CDR-L3": "QQYHRLPLS", "group": "Ctrl", "log10 Kd (nM) by replicate": "-0.43 / -0.37 / -0.49 / -0.92 / -0.33 / -0.24", "control signals": "1 of 18 (2.25)"}
{"CDR-L1": "KASQSVEYESRNKNSVA", "CDR-L2": "EASTRES", "CDR-L3": "QQYARLPLS", "group": "Ctrl", "log10 Kd (nM) by replicate": "-0.35 / -0.27 / -0.46 / -0.61 / -0.41 / -0.18", "control signals": "2 of 18 (2.76)"}
{"CDR-L1": "KSSQDVLYESRNKNSVA", "CDR-L2": "EASTREH", "CDR-L3": "QQYHRLCVS", "group": "Ctrl", "log10 Kd (nM) by replicate": "0.01 / 0.43 / -0.02 / -0.01 / 0.24 / -0.53", "control signals": "0 of 18"}
{"CDR-L1": "IMSQSVLYESRNKNSVA", "CDR-L2": "GASTRES", "CDR-L3": "QQYHRLPLS", "group": "Ctrl", "log10 Kd (nM) by replicate": "0.15 / 0.20 / 0.06 / -0.19 / 0.20 / 0.23", "control signals": "0 of 18"}
{"CDR-L1": "KQSQSQLYESRNKNSVA", "CDR-L2": "QASTRES", "CDR-L3": "QQYHRLPLS", "group": "Ctrl", "log10 Kd (nM) by replicate": "0.03 / 0.12 / 0.01 / 0.55 / 0.18 / 0.04", "control signals": "0 of 18"}
{"CDR-L1": "KFSQSVLYESRNKNSVA", "CDR-L2": "NASTRIA", "CDR-L3": "QQYHRLPLS", "group": "Ctrl", "log10 Kd (nM) by replicate": "0.41 / 0.09 / 0.17 / 0.11 / 0.10 / 0.45", "control signals": "1 of 18 (2.44)"}
{"CDR-L1": "KMSDSVLYESRNKNSVA", "CDR-L2": "WASTRES", "CDR-L3": "QQYHRLPLS", "group": "Ctrl", "log10 Kd (nM) by replicate": "0.77 / 0.43 / 0.43 / 0.22 / 0.54 / 0.57", "control signals": "0 of 18"}

Of ten entries with the parent sequence, four were seen in most replicates (averages 0.34 to 2.37), three in one and three in none, so single entries are noisy. A sequence measured in both rounds can read differently, since the two assays cover different ranges. Where one sequence has several entries in the source, the replicates are listed entry by entry, parted by semicolons. As a blank, each scFv also met three strains without target: over all light chain designs, 4% of these pairings were detected, typically at 2.64 and seldom below 1.59. The control count says in how many pairings with the empty strains this scFv gave a signal, with their mean in brackets. The authors averaged sequences with at least three values out of six and counted those with two or fewer as poor binders.